# Assay results reported in patent US9284300B2 (dated 2016).
# Amino acid sequences for entries named in this document (tags omitted). Residues count along the entry.
# UniProt P08581, 25-1390: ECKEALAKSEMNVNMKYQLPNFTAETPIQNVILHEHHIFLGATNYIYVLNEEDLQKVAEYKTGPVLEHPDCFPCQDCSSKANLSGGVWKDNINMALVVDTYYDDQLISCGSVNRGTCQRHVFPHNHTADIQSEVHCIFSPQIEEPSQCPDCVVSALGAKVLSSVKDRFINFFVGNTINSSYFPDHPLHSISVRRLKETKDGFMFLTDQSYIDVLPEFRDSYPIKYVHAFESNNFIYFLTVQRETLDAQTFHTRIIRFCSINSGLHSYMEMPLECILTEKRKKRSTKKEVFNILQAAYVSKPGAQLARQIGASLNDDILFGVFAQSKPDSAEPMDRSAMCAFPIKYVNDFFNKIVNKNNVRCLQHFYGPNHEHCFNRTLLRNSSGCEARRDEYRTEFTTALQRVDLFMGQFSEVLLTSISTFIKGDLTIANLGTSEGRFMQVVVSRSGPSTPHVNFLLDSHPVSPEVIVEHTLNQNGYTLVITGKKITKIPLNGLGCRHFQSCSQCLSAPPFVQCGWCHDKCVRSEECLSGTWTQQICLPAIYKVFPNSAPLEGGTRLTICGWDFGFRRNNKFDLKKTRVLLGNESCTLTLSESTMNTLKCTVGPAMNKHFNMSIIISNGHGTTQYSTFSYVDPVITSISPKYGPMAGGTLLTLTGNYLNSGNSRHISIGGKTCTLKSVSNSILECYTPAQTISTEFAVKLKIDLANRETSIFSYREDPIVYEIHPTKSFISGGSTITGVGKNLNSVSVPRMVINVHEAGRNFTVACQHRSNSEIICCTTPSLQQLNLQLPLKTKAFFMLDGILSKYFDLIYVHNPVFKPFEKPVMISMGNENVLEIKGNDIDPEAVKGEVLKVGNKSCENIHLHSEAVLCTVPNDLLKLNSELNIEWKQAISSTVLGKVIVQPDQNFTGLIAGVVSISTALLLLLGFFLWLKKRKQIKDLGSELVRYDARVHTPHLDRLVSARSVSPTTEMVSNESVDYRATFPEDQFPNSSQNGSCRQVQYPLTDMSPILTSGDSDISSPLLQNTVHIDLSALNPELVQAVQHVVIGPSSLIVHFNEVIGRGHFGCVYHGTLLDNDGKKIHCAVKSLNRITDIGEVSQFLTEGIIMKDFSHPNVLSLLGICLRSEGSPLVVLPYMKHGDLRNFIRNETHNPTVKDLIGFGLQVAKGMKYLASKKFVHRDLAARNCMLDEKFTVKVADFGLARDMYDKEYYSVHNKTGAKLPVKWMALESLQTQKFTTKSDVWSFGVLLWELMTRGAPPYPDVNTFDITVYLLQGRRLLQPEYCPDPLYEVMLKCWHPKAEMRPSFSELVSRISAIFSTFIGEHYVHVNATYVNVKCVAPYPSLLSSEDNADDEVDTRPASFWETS
# Target: Met kinase (Homo sapiens, UniProt P08581)
# Assay: Met kinase inhibition, cell assay
# Assay type: cell-based
compound,measurement,value
Cc1ccc(-c2cccc(Cn3nc(-c4cc(F)cc(F)c4)ccc3=O)c2)nc1,IC50,1 to 1000 nM
